Results published in PMC12427885 (Foods, 2025).

Test system: NCCc1c[nH]cn1
Assay: purified protein
Conditions: apparent, 25 mM potassium phosphate pH 6.8, 37 °C, 0.05-3.1 mM histamine, partially purified enzyme

DAO-GH (Glutamicibacter halophytocola)
Km: 900 ± 70 µM
